Source: paper PMC10528180, “Inhibitory Mechanism of Quercimeritrin as a Novel α-Glucosidase Selective Inhibitor” (Foods, 2023)

Chains of the proteins cited; added tags and fusions are not shown. Lines headed by an entry give the natural chain unless they say otherwise; changes in a name come on top.
UniProt P53341: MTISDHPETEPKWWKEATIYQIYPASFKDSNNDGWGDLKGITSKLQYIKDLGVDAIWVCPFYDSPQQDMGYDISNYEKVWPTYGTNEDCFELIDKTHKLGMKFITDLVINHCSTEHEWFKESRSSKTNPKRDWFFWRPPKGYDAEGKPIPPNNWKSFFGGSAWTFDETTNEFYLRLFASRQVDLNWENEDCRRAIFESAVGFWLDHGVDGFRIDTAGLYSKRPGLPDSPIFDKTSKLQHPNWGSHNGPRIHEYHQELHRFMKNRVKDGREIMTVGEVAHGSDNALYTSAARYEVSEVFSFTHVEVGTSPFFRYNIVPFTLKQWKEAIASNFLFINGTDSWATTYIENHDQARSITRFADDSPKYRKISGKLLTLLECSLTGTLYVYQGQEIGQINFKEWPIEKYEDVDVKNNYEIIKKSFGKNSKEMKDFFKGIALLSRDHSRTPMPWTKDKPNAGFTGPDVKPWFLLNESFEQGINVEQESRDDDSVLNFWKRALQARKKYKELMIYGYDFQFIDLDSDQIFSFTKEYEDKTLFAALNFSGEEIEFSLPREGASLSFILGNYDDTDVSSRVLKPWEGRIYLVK

Columns and labels:
[1] = target: T1, α-glucosidase (Saccharomyces cerevisiae, UniProt P53341); format: biochemical; conditions: read-out: α-glucosidase inhibition IC50±SEM
T1 construct: purchased Sigma-Aldrich Co
Protocol: (§1) The other reagents used in this experiment are analytically pure reagents purchased from Sigma-Aldrich Co. (St. Louis, MI, USA) unless specified otherwise.
(§2) The in vitro α-glucosidase activity assay was determined using spectrophotometry, as previously reported, with only minor modifications. In phosphate buffer with a pH of 6.8, 0.5 U/mL of α-glucosidase and the appropriate quantity of p-nitrophenyl-D-glucopyranoside (pNGP) were produced. […] Gradient dilution with a phosphate-buffered solution was used to create sample solutions of various concentrations. First, different concentrations of compound (10 μL), an enzyme solution (40 μL), and potassium phosphate buffer (100 μL) were pre-incubated in 96-well plates at 37 °C for 10 min.
(§3) The enzymatic inhibitory activity of the tested compounds was calculated using the following formula: Inhibition %=[(Abs control−Abs sample)/Abs control]×100
(§4) The IC50 values of the tested compounds were calculated using nonlinear fitting (logit method).

[2] = target: T2, α-amylase (Sus scrofa, UniProt P00690); assay: In vitro α-amylase activity assay (G3-CNP, absorbance 405 nm); format: biochemical, porcine; conditions: read-out: α-amylase inhibition IC50±SEM
T2 construct: α-amylase (EC 232-565-6, powder, ≥5 units/mg solid) isolated from porcine pancreas; purchased Sigma-Aldrich Co; host or cells: porcine pancreas
T2 sequence (P00690 16-511): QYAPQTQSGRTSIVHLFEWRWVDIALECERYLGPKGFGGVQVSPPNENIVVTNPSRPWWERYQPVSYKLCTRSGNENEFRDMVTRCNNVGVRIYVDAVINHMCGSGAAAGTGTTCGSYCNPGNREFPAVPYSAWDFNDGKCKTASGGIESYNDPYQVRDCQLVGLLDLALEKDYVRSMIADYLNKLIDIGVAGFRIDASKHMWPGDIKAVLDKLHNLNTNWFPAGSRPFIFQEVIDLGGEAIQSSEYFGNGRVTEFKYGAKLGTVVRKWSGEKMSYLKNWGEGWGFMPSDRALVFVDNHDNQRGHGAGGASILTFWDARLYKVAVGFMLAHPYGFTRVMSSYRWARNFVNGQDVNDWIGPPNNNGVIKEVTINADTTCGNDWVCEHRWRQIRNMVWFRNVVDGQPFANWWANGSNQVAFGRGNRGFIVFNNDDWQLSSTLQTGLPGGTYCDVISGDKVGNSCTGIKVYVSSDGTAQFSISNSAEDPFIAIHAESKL
Protocol: as §1
as §2, with “modifications. A total” for “modifications. In phosphate buffer with a pH”, “of 5” for “of 6.8, 0.5”, “of α-amylase” for “of α-glucosidase”, “of 2-chloro-4-nitrophenyl α-D-maltotrioside (G3-CNP)” for “of p-nitrophenyl-D-glucopyranoside (pNGP)”
as §3, §4

Catechin gallate
IC50 [1]: 7.53 ± 0.55 µM
IC50 [2]: 149 ± 33.6 µM
